Test results published in patent publication US10729740B2, “Lytic-peptide-Her2/neu (Human Epidermal growth factor Receptor 2) ligand conjugates and methods of use” (Esperance Pharmaceuticals, Inc., priority 2010, dated 2020).

Tests used:
[1] = tested on: Her2 receptor negative MDA-MB-231 cancer cells; assay: In vitro cytotoxicity, MTT assay, 48 h, MDA-MB-231; conditions: read-out: IC50 [nM] MDA-MB-231, 48 h incubation
Method: (§1) 68) to the antibody at the C-terminus by NRVRRS (SEQ. ID NO. 57) linker). Cytotoxicity was compared to a naked antibody (antibody without a lytic peptide) in Her-2 receptor positive cells (SKBR-3 and SKOV-3, human breast and ovarian cancer cells, respectively) and Her-2 receptor negative breast cancer cells (MDA-MB-231).
(§2) Cells were prepared in 96 well plates using 2,000 cells/well and were allowed to attach for 48 hours. […] All data were processed and analyzed using Graph Pad Prizm 4™ software (Graph Pad Prizm, Inc).

[2] = tested on: Her2 receptor positive SKBR-3 cancer cells; assay: In vitro cytotoxicity, MTT assay, 48 h, SKBR-3; conditions: read-out: IC50 [nM] SKBR-3, 48 h incubation
Method: as §1, §2

[3] = tested on: Her2 receptor positive SKOV-3 cancer cells; assay: In vitro cytotoxicity, MTT assay, 48 h, SKOV-3; conditions: read-out: IC50 [nM] SKOV-3, 48 h incubation
Method: as §1, §2

Substance | IC50 [1] [nM] | IC50 [2] [nM] | IC50 [3] [nM]
scFv-CH3-GS-(KLAKLAK)2KLAK (GSKLAKLAKKLAKLAKKLAK) | > 1000 | 246 ± 41 | 235 ± 6.5
scFv-CH3-NRVRRS-(KLAKLAK)2KLAK (NRVRRSKLAKLAKKLAKLAKKLAK) | > 1000 | 338 ± 8.7 | 247 ± 40.5
